Data taken from patent US10526385B2, “YAP protein inhibiting polypeptide and application thereof” (BAO KANG BIOMEDICAL HEALTHCARE INC, priority 2013, dated 2020).

Tests used:
[1] = test system: hepatoma cell line HCCLM3; format: cell-based; conditions: Table 8; at a concentration of 1% in cell cultivating for 72 h; unit inferred
Method: (§1) The hepatoma cell line BEL7404 (purchased from The Chinese Academy of Sciences cell bank) was a cell line with high expression of YAP protein; HCCLM3 (purchased from The Chinese Academy of Sciences cell bank) was a cell line with low expression of YAP protein. The hepatoma cell lines (BEL7404 or HCCLM3) were inoculated into a 96-well plate at the concentration of 2000 cells/well, and incubated overnight in RPMI1640 containing 1% bovine serum at 37° C. The hepatoma cell lines were treated with polypeptides having different concentrations at 37° C. for 72 h.
(§2) Moreover, IC50 values of the cells in 1.1 were determined using CCK-8 kit.
(§3) The polypeptide represented by SEQ ID NO.:1 was further modified. The IC50 values of the polypeptides at a concentration of 1% in cell cultivating for 72 h were measured.

[2] = test system: hepatoma cell line BEL7404; format: cell-based; conditions: Table 8; at a concentration of 1% in cell cultivating for 72 h; unit inferred
Method: as §1, §2, §3

`CCCC[C@@H]1NC(=O)[C@H](CCCCN)NC(=O)[C@H](CCCCN)NC(=O)[C@@H](NC(=O)[C@H](CC(C)C)NC(=O)[C@H](Cc2cccc(Cl)c2)NC(=O)[C@@H]2CCCN2C(=O)[C@@H](N)C(C)C)CCSSC[C@@H](C(=O)N2CCC[C@H]2C(=O)N2CCC[C@H]2C(=O)N[C@@H](CCCNC(=N)N)C(=O)N[C@@H](CCCNC(=N)N)C(=O)N[C@@H](CCSC)C(=O)N[C@@H](CCCCN)C(=O)N[C@@H](Cc2c[nH]c3ccccc23)C(=O)N[C@@H](CCCCN)C(=O)N[C@@H](CCCCN)C(=O)O)NC(=O)[C@H](CCCCN)NC(=O)[C@H](Cc2ccccc2)NC(=O)[C@H](CO)NC(=O)[C@H](C)NC(=O)[C@@H]2CCCN2C1=O` [compound 32] was tested, and the IC50 [1] was 319 ± 17.5 µM and the IC50 [2] was 38.4 ± 3.8 µM.
